Results from paper PMC2132721.

Sequences of proteins named here, by UniProt entry; tags and fusion partners are left off.
UniProt P05556, whole entry, looked up: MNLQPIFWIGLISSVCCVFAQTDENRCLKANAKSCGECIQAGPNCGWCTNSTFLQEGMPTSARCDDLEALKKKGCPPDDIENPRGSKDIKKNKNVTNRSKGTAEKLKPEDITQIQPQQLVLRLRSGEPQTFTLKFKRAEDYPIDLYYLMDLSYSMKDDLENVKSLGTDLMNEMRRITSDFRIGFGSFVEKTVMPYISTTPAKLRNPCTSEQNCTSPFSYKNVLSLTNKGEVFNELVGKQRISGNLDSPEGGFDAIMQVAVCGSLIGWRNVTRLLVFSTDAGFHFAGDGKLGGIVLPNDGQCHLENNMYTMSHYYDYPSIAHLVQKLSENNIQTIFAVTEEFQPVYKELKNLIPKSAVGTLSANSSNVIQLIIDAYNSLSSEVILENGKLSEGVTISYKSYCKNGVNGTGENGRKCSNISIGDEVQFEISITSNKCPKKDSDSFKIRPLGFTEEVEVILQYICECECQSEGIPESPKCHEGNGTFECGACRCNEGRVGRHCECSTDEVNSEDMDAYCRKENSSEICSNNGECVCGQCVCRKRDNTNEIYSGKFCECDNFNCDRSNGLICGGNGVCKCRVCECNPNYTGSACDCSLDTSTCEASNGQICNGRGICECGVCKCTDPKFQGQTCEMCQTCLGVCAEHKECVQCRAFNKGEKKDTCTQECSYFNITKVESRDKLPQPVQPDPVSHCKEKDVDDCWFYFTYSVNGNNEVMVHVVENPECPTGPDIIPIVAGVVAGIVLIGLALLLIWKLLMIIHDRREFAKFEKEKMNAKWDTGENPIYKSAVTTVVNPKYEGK

Biological target: α5β1 integrin of A1-F human foreskin fibroblasts (human (endogenous in A1-F foreskin fibroblasts)) (UniProt P05556)
Experiment: pull-down

percent decrease of α5β1 binding to the 120-kD column: 70%
Substance: 70-kD amino-terminal fragment of human plasma fibronectin (domain or fragment)
